One compound from patent publication US12686690B2, “Macrocyclic urea orexin receptor agonists” (Merck Sharp & Dohme LLC, priority 2020, dated 2026) can be followed below.

Amino acid sequences for entries named in this document (tags omitted).
UniProt O43614, whole entry: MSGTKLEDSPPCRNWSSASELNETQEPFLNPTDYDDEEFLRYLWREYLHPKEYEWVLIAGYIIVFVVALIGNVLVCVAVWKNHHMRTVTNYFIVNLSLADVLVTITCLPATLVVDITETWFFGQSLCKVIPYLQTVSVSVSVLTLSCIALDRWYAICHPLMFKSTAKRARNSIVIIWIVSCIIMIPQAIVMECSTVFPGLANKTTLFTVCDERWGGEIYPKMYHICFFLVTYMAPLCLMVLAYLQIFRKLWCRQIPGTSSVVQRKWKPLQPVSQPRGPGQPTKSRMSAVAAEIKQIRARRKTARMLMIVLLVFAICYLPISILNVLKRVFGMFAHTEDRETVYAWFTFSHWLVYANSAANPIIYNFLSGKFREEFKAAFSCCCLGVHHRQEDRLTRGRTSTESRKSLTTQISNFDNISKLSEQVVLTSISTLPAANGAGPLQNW

This experiment addresses hOX2R (Homo sapiens, UniProt O43614). The experiment is described as follows: hOX2R IPone assay (orexin receptor agonism). The note with it: read-out: hOX2R_IPone EC50; orexin receptor agonist, IPone readout. The class given is cell-based.

A word on the EC50: it is the concentration giving half of the maximal effect. Turning to `CCN1C(=O)NC(CCC(F)(F)F)CCC(F)(F)CCOc2nc(cn3ccnc23)-c2cc(ncc2OC)[C@H]1C` (single isomer, unassigned), the EC50 was 1.8 nM.
